Test results taken from US6458837B1, “Lipophilic diesters of chelating agents” (D-Pharm Ltd., priority 1997, dated 2002).

Experiment: Octanol-saline partition coefficient (lipophilicity)
Assay type: physicochemical
Details: octanol/physiological saline, 26° C.; for LogPc, octanol-saline partition coefficient, M = Ca++: calcium salt (BAPTA: dicalcium salt); for LogPc, octanol-saline partition coefficient, M = Na+: sodium salt (BAPTA: tetrasodium salt)
Experimental: The lipophilicity values of several BAPTA diesters salts of the invention were studied by comparing the solubility of these compounds in organic versus aqueous solutions. Octanol and physiological saline were used, respectively, as the organic and aqueous solutions. The partition coefficient (Pc), i.e the distribution ratio between the organic and the aqueous phases were determined for several specific BAPTA diesters salts of the general formula I: [drawing 6]

Substance	LogPc, octanol-saline partition coefficient, M = Ca++	LogPc, octanol-saline partition coefficient, M = Na+
Propyl diester of BAPTA [C3H7]	−0.51	−0.63
BAPTA diester of heptylethylene glycol [C7H15OCH2CH2]	1.00	1.34
Methyltriethylene glycol diester of BAPTA [CH3(OCH2CH2)3]	−1.00	−1.93
BAPTA diester of heptyldiethylene glycol [C7H15(OCH2CH2)2]	0.95	1.30
BAPTA diester of methylethylene glycol [CH3OCH2CH2]	−1.85	−2.27
Butyl diester of BAPTA [C4H9]	0.32	−0.01
Heptyl diester of BAPTA [C7H15]	0.76	0.82
